Source: PMC2710984 (International Journal of Peptide Research and Therapeutics, 2006)

Protein sequences, listed by entry. Tags and fused reporters are not part of them. Residues count along the entry.
UniProt P98170, 241-356 limits assumed: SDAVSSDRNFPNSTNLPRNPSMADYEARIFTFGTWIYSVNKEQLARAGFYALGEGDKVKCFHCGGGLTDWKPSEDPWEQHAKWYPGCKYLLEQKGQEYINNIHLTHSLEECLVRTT

Molecular target: XIAP BIR3 (Homo sapiens, UniProt P98170)
Test: Peptide–BIR3 binding assay

| inhibitory activity against Smac–BIR3 interaction (in words) | IC50 [nM] | Compound |
| --- | --- | --- |
| total loss of inhibitory activity |  | CC(C)[C@H](NC(=O)[C@H](C)O)C(=O)N1CCC[C@H]1C(=O)N[C@@H](Cc1ccccc1)C(N)=O [Compound 14, Lac–VPF] |
|  | 710 | CC(C)[C@H](NC(=O)[C@H](C)N)C(=O)N1CCCC[C@H]1C(=O)N[C@@H](Cc1ccccc1)C(N)=O [Compound 21, AV–Pip–F] |
